This is a sample that favours compounds with a hit; in the whole collection about 1.2% have one here.
Statin myotox sup – protects C2C12 myotubes from simvastatin toxicity; ATP luminescence, 48 h; scaled: DMSO 0, geranylgeraniol control 100; rescue of ATP level, % at 7.49 µM; hit rate 0.78% among 330,000;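 active means mean ATP rescue above about 67%, or every replicate alone reaching that limit, limit read from the data, passing the limit was not always enough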;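 further: myotubes were challenged with 10 µM simvastatin during compound exposure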
Glyco luc inh – N-linked glycosylation inhibition; D54 ERlucT glycosylation luciferase reporter, 24 h; percent of 100 nM tunicamycin response; reporter increase, % at 12.5 µM; hit rate 0.23% among 360,000;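 active means mean luciferase reporter signal, scaled so untreated is 0 and the glycosylation-blocking control 100, at or above a set limit in every replicate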;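 further: luciferase carries N-glycosylation sites so blocking glycosylation raises the light; 0% = median of neutral control wells and 100% = median of 100 nM tunicamycin wells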
Cneo AK release – Cryptococcus neoformans lysis via adenylate kinase release; C. neoformans lysis, adenylate kinase release luminescence, 4 h; normalised: neutral wells 0, clomiphene wells 100; lysis activity, % at 15 µM; hit rate 0.2% among 360,000; AID 651654;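 active means mean lysis activity across replicates of at least 80%, whatever share of replicates individually reach that level; inactive means mean lysis activity below 80%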
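Test system: log-phase Cryptococcus neoformans yeast cells. Input: 5 × 10^6 yeast cells/mL. Medium: fresh YPD growth medium. Doses: single dose. Incubation: static 4 h at 37 °C with compound, 1 h detection. Measured by: luminescent adenylate kinase detection reagent. Read-out: signal increase indicating cell lysis. Benchmarks: Clomiphene.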
miR122 inh – inhibitors of miR-122 in Huh7 cells. Huh7 miR-122 Renilla luciferase sensor, 48 h; neutral wells = 0, positive control = 100. activation (reporter increase), % at 12.5 µM. hit rate 0.3% among 340,000. AID 602342;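 active means mean replicate activation score at least 90 and every replicate individually at or above 90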;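 further: higher luciferase means less miR-122 activity so hits act as miR-122 inhibitors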
Yeast UUG start – modulators of yeast start codon fidelity, primary screen, whole organism, S. cerevisiae, single point, plate reader | AID 602363, 2012 | actives 0.13% (n = 350,000) | activity score, % at 18.7 µM | S. cerevisiae UUG-firefly luciferase reporter, luminescence/redox ratio;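 active means replicate mean at a twofold rise or more, about +100% in these data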;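 further: firefly luciferase made from a UUG start codon reports start codon fidelity; reporter light over untreated wells divided by growth signal over untreated wells; some hits fall short of that in this replicate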
An asterisk follows results filed as active; [ ] = remark or other dose.

Screening CCc1cc(=O)oc2cc(C)cc(OCC(=O)N3CCC(C(=O)NC(C)C)(c4ccccc4)CC3)c12 returned Statin myotox sup -38.6, Glyco luc inh 0.4, Cneo AK release -1.5, miR122 inh -4.7 and Yeast UUG start 17.5.
`Cc1cccc(OCCCC(=O)Nc2ccccc2C(F)(F)F)c1` gave Statin myotox sup 97.2*, Glyco luc inh 0.8, Cneo AK release 0.0, miR122 inh 1.8 and Yeast UUG start 10.3.
For CCC(=O)N1CCCCN2[C@H](C1)[C@@H](c1ccc(-c3cccc(C(=O)N(C)C)c3)cc1)[C@@H]2CO the results were Cneo AK release -2.2, miR122 inh 2.7[16.7 µM] and Yeast UUG start -2.1.
Screening COc1ccc(/C=N\NC(=O)c2ccc(-c3ccccc3)cc2)c(OC)c1OC returned Glyco luc inh 0.2, Cneo AK release -0.8 and Yeast UUG start -15.5.
`COc1cc(/C=N/NC(=O)c2ccc(-c3ccccc3)cc2)cc(OC)c1OC` gave Glyco luc inh 32.7*.
`O=C(CSc1n[nH]c(-c2ccncc2)n1)Nc1ccccc1C(F)(F)F` gave Statin myotox sup 3.4, Glyco luc inh 4.5, Cneo AK release -1.7, miR122 inh -2.5 and Yeast UUG start 4.9.
For S=c1[nH]nc(COc2ccccc2)n1/N=C/C(Cl)=C/c1ccccc1 the results were Glyco luc inh 14.9.
For CCOC(=O)c1sc(NCC2CCCO2)nc1C (stereo not drawn) the results were Statin myotox sup 113.2*, Glyco luc inh 1.4, Cneo AK release 3.2, miR122 inh -3.2 and Yeast UUG start 13.7.
For CCOC(=O)c1sc(NC(=O)C2CC2)nc1C the results were Statin myotox sup -11.2, Glyco luc inh -2.0, Cneo AK release -2.5, miR122 inh 9.9 and Yeast UUG start -6.5.
`CCC(=O)N1[C@H](CO)[C@H](c2ccccc2)[C@@H]1CN(CC)C(=O)c1cccc(F)c1` gave Statin myotox sup -16.9, Cneo AK release 99.2*, miR122 inh 250.0*[16.7 µM] and Yeast UUG start 18.7.
CCN(C[C@H]1[C@H](c2ccccc2)[C@@H](CO)N1C(C)=O)C(=O)c1cccc(F)c1 was read as Statin myotox sup -1.9, Cneo AK release -0.8, miR122 inh -11.8[16.7 µM] and Yeast UUG start -2.9.
CCC(=O)N1[C@H](CN(CC)C(=O)c2cccc(F)c2)[C@H](c2ccccc2)[C@@H]1CO was read as Statin myotox sup 4.7, Cneo AK release -5.4, miR122 inh 125.0*[16.7 µM] and Yeast UUG start -0.4.
O=C(NNc1ccc(Cl)cc1)c1c(F)cccc1Cl was read as Statin myotox sup 11.4, Glyco luc inh 0.3 and miR122 inh -1.6.
Screening CC(=O)C(=Nc1ccccc1Cl)NNc1ccc(Cl)cc1 returned Statin myotox sup 151.6*, Glyco luc inh 4.2, Cneo AK release 0.6, miR122 inh -1.9 and Yeast UUG start -25.0.
COC(=O)c1ccccc1NC(=O)c1ccccc1OC was read as Statin myotox sup 123.6*, Glyco luc inh 2.9, Cneo AK release -0.7, miR122 inh -1.5 and Yeast UUG start -11.0.
Screening COc1cc(NC(=O)c2ccccc2OCc2ccccc2)cc(OC)c1OC returned Statin myotox sup -18.2, Glyco luc inh 27.8*, Cneo AK release 0.6, miR122 inh -5.1 and Yeast UUG start -11.3.
CNC(=O)c1cccc(NC(=O)c2ccccc2OCc2ccccc2)c1 was read as Statin myotox sup 6.7, Glyco luc inh 27.1*, Cneo AK release -2.4 and Yeast UUG start 3.9.
Screening O=C(NCc1cccc(F)c1)C1CCC(=O)N(C2CC2)C1 (stereo not drawn) returned Statin myotox sup 13.3, Glyco luc inh 1.7, Cneo AK release 5.7, miR122 inh -10.6 and Yeast UUG start -20.4.
For Cc1c(F)cccc1NC(=O)CCCCCC1NC(=O)NC1C (stereo not drawn) the results were Statin myotox sup 8.5, Glyco luc inh 3.0, Cneo AK release 4.9, miR122 inh -8.7 and Yeast UUG start -12.1.
`CCN1C(=NCc2ccco2)N[C@@H](c2cccc(C(F)(F)F)c2)C(C(=O)OC)=C1C` gave Statin myotox sup 88.0*, Glyco luc inh -3.1, Cneo AK release 0.0, miR122 inh -6.8 and Yeast UUG start -6.4.
CC1CCCCC12NC(=O)N(CC(=O)N1CCN(c3ncccn3)CC1)C2=O (stereo not drawn) was read as Statin myotox sup -4.3, Glyco luc inh -0.6, Cneo AK release -0.4, miR122 inh 0.2 and Yeast UUG start -11.6.
Cc1cc(C)c2cc(CN(Cc3ccco3)C(=O)NCc3ccccc3)c(=O)[nH]c2c1 was read as Statin myotox sup 110.2*, Glyco luc inh -1.8, Cneo AK release -1.4, miR122 inh -4.8 and Yeast UUG start 2.1.
For CCOc1cc(CNCc2ccncc2)cc(Br)c1OCc1ccccc1F the results were Statin myotox sup 112.5*, Glyco luc inh -3.8, Cneo AK release 2.2, miR122 inh -13.3 and Yeast UUG start -3.8.
`C[C@H]1CN([C@@H](C)CO)C(=O)c2cc(C#CCN(C)C)cnc2O[C@@H]1CN(C)Cc1ccc2c(c1)OCO2` gave Statin myotox sup 13.8, Cneo AK release 0.5, miR122 inh -2.8[16.7 µM] and Yeast UUG start -10.3.

Looked up by compound from the entries so far, three records:
O=C(NNc1ccc(Cl)cc1)c1c(F)cccc1Cl was read as Statin myotox sup 11.4, Glyco luc inh 0.3 and miR122 inh -1.6.
CNC(=O)c1cccc(NC(=O)c2ccccc2OCc2ccccc2)c1 was read as Statin myotox sup 6.7, Glyco luc inh 27.1*, Cneo AK release -2.4 and Yeast UUG start 3.9.
`C[C@H]1CN([C@@H](C)CO)C(=O)c2cc(C#CCN(C)C)cnc2O[C@@H]1CN(C)Cc1ccc2c(c1)OCO2` gave Statin myotox sup 13.8, Cneo AK release 0.5, miR122 inh -2.8[16.7 µM] and Yeast UUG start -10.3.

(cont.)
For COc1cc(OC)c(N(C)C(=O)c2cn(C)c(=O)c3cc(OC)c(OC)cc23)cc1Cl the results were Statin myotox sup -2.9, Glyco luc inh 3.7, Cneo AK release 126.6* and Yeast UUG start 12.2.
Cc1noc(C)c1NC(=O)N[C@H]1CC[C@H](CC(=O)N2CCN(C)CC2)O[C@H]1CO was read as Statin myotox sup -3.7 and Cneo AK release 2.7.
Screening CC(=O)CCc1c[nH]c2c(C(=O)O)cccc12 returned Statin myotox sup 103.8*, Glyco luc inh 0.8, Cneo AK release -0.1, miR122 inh 4.9 and Yeast UUG start -17.7.
Screening CC(=O)CCc1ccccc1 returned Statin myotox sup -1.7, Glyco luc inh 0.8, Cneo AK release 2.0, miR122 inh -15.1 and Yeast UUG start -14.6.
Cc1ccc(NC(=O)CN(C)C(=O)C(Sc2ccccc2)c2ccccc2)cc1 (stereo not drawn) was read as Statin myotox sup 1.8, Glyco luc inh 0.7, Cneo AK release 1.2, miR122 inh 1.8 and Yeast UUG start -3.0.
Screening C[C@@H]1CN([C@@H](C)CO)C(=O)c2cc(NS(=O)(=O)c3cn(C)cn3)ccc2O[C@@H](C)CCCCO[C@H]1CN(C)S(=O)(=O)c1ccc(Cl)cc1 returned Cneo AK release 3.5, miR122 inh 1.3[16.7 µM] and Yeast UUG start 6.3.
For COc1cc(-c2nc3ccccn3c2NCc2ccccc2)ccc1SC1CCCCC1 the results were Statin myotox sup 4.7, Glyco luc inh -9.4, Cneo AK release 4.6 and Yeast UUG start -19.2.
For COc1ccc(-c2nc3ccccn3c2NC2CCCCC2)cc1SC1CCCCC1 the results were Statin myotox sup -17.8, Glyco luc inh -10.5, Cneo AK release 0.8, miR122 inh 114.7* and Yeast UUG start -2.8.

Screening results as filed in PubChem BioAssay.
